# Source: PMC10604324, “Implications for Combination Therapy of Selective Monoamine Reuptake Inhibitors on Dopamine Transporters” (Biomedicines, 2023)
# Protein sequences, listed by entry. Tags and fused reporters are not part of them.
# UniProt Q01959, whole entry: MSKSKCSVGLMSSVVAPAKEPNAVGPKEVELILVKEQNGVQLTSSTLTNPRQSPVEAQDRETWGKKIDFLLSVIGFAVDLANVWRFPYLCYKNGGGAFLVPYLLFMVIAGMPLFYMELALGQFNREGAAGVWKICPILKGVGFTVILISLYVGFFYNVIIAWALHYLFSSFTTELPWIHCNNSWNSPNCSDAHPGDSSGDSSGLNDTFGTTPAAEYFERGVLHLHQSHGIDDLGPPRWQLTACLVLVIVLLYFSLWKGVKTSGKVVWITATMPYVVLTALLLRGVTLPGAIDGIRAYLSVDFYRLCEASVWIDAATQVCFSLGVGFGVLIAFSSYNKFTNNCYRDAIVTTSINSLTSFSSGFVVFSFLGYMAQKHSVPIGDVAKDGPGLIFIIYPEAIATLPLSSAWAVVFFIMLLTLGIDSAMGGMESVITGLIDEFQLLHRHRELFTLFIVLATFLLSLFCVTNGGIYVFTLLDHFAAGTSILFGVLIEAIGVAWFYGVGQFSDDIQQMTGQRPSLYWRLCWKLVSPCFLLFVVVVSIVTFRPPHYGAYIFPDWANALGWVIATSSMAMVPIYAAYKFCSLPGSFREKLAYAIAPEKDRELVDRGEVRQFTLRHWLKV
# Biological target: human DAT (Homo sapiens, UniProt Q01959)
# Experiment: Fluorescence-based neurotransmitter uptake assay, HEK-hDAT cells
# Details: monovalent ions
smiles,measurement,value
C[N+](C)(C)CCO [Choline],fold lower potency for DAT inhibition than the other ions tested,approximately 10 fold
